This passage reports inhibition results from PubChem BioAssay AID1008 (NMMLSC, 2008).

Amino acid sequences for entries named in this document (tags omitted). A change or cut given only in a name is not applied to a line headed by its entry.
UniProt Q16548: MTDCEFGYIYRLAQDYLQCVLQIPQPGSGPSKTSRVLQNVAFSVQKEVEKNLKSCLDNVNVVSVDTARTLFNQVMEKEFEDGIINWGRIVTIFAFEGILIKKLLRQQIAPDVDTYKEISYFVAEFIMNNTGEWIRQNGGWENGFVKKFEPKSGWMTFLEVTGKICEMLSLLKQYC

Structures are written as SMILES. The entries are a selection whose mix differs from that of the whole data set. Active and inactive are the calls of the source. No stated cut-off is given here; in the data, active means inhibition above about 40%.

In this assay the target is Bcl-2-related protein A1 (Homo sapiens) (UniProt Q16548). Put plainly: inhibitors of Bim binding to Bfl-1, primary screen, biochemical, multiplexed, bead-based flow cytometry (AID 1008).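 Further: 0% = wells without compound plus tracer and 100% = blocker peptide.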 As to conditions: Bim-Bfl-1 binding inhibition, at 10 µM, stronger effect = higher value. A general note: Flow cytometry measures light scatter and fluorescence of single cells or particles in a stream.
Broadly, the inhibition is the change of the read-out against control, counted positive when it falls. `c1ccc(-c2nn[nH]n2)c(-c2nn[nH]n2)c1`: the inhibition is inactive: 9%.
In the case of `CCOC(=O)NC(Sc1ccccc1)C(Cl)(Cl)Cl` (stereo unspecified), the inhibition is inactive: 0%.
Regarding `CCNC(=S)/N=C(\N)N[N+](=O)[O-]`, the inhibition is inactive: -4%.
As for `O=C(NC1CCS(=O)(=O)C1)NP(=S)(Oc1ccccc1)Oc1ccccc1` (stereo unspecified), the inhibition was inactive: -8%.
For the compound `CC(=O)Nc1ccc(Oc2c([N+](=O)[O-])cc([N+](=O)[O-])cc2[N+](=O)[O-])cc1`, the inhibition is inactive: -1%.
On to `O=P1(Nc2nc3ccc(Cl)cc3s2)COc2ccccc2O1` (stereo unspecified), for which the inhibition is inactive: -9%.
As for `CCOc1ccc(C2=NCC(CBr)S2)cc1` (stereo unspecified), the inhibition was inactive: -1%.
In the case of `CC(C)(C)C(=O)NC(Sc1ccccc1)C(Cl)(Cl)Cl` (stereo unspecified), the inhibition was inactive: -4%.
Take `CC(C)C(=O)NC(Sc1ccccc1)C(Cl)(Cl)Cl` (stereo unspecified): the inhibition was inactive: -15%.
`O=P(Nc1nccs1)(c1ccccc1)c1ccccc1`: the inhibition was inactive: -11%.
With `c1nnnn1CCn1cnnn1`, the inhibition was inactive: -9%.
For `CC(=O)NC(SC(=S)N(C)C)C(Cl)(Cl)Cl` (stereo unspecified) the value was inactive: -2%; for `O=C(OC1CN2CCC1CC2)c1cccc(Cl)c1` (stereo unspecified), inactive: -4%; for `C(Cc1nn[nH]n1)Cc1nn[nH]n1`, inactive: -2%.
Turning to `O=P(Nc1ccccn1)(c1ccc(Br)cc1)c1ccc(Br)cc1`, the inhibition was inactive: -5%.
Turning to `O=P1(Nc2ncccn2)COc2ccccc2OC1`, the inhibition is inactive: -10%.
Consider `O=P1(Nc2ccc(Br)cn2)COc2ccccc2OC1`, for which the inhibition was inactive: -6%.
Turning to `Cc1ccc(OCC(=O)OC2CN3CCC2CC3)cc1` (stereo unspecified), the inhibition is inactive: -12%.
Consider `Cc1nn(-c2ccccc2)c2c1P(=O)(N1CCOCC1)N(C)C(c1ccccc1)=N2` (stereo unspecified), for which the inhibition was inactive: -4%.
Turning to `CC1CCC(C(C)C)C(OP(=O)(Nc2ccccn2)c2ccccc2)C1` (stereo unspecified), the inhibition was inactive: -9%.
With `CN(C)C1(CNC(=O)c2ccc(S(C)(=O)=O)cc2)CCCCC1`, the inhibition was inactive: 2%.
`CC(C)/C=N\N=C(\N)N[N+](=O)[O-]`: the inhibition is inactive: -6%.
As for `CN(C(=O)Cc1ccc(Cl)c(Cl)c1)[C@@H]1CCCC[C@H]1N1CCCC1`, the inhibition was inactive: 0%.
On to `O=P1(Nc2ccccn2)COc2ccccc2OC1`, for which the inhibition is inactive: -16%.
For `Clc1n[nH]nc1-c1nn[nH][15n]1` the value was inactive: -20%; for `Cc1ccc(NCCc2c([N+](=O)[O-])cc([N+](=O)[O-])cc2[N+](=O)[O-])cc1`, inactive: 1%; for `COc1cc(C2NCCC3(OCCO3)C2(C)C)cc(OC)c1OC` (stereo unspecified), inactive: -5%.
For `CCOP(=O)(Nc1cccc2ccccc12)OCC`, the inhibition was inactive: -4%.
In the case of `COc1cc(C(=O)NCC2(N3CCOCC3)CCCCC2)cc(Cl)c1OC(C)C` it was inactive: -8%; in that of `Cc1cccc(OCC(=O)OC2CN3CCC2CC3)c1` (stereo unspecified), inactive: -2%.
Turning to `CCOP1(=S)c2c(C)nn(CCC#N)c2N=C(c2ccc(F)cc2)N1C` (stereo unspecified), the inhibition was inactive: -9%.
Take `O=[N+]([O-])c1ccc2c(c1)nnn2O`: the inhibition is inactive: -6%.
For `CCOP1(=S)c2c(C)nn(CCC#N)c2N=C(c2ccccc2F)N1C` (stereo unspecified), the inhibition is inactive: -10%.
Turning to `O=P(Nc1nccs1)(c1ccccc1)c1nc2ccccc2s1` (stereo unspecified), the inhibition was inactive: -12%.
In the case of `O=P(Nc1nccs1)(Oc1ccccc1)Oc1ccccc1` it was inactive: -4%.
Take `ClCCSc1nnc(-c2cccnc2)o1`: the inhibition is inactive: -5%.
As for `CCN(CC)C(=S)SC(NC=O)C(Cl)(Cl)Cl` (stereo unspecified), the inhibition was inactive: 0%.
For `CC(C)NC(=O)NP(=O)(Oc1ccccc1)Oc1ccccc1` the value was inactive: -9%; for `O=[N+]([O-])c1cc([N+](=O)[O-])c(-c2ccn[nH]2)s1`, inactive: 1%; for `Cc1ccc2nc3c(c(C)c2c1)CC(C(Cl)Cl)S3` (stereo unspecified), inactive: -10%.
Regarding `COc1ccc(N/C(=N/P(=O)(N2CCOCC2)N2CCOCC2)N2CCOCC2)cc1`, the inhibition is inactive: -9%.
On to `Cc1c2c(nc3ccccc13)SC(C(Cl)Cl)C2` (stereo unspecified), for which the inhibition was inactive: -13%.
With `O=C(OC1CN2CCC1CC2)C12CC3CC(CC(C3)C1)C2` (stereo unspecified), the inhibition is inactive: -12%.
`Cc1cc(=O)[nH]c(N[N+](=O)[O-])n1`: the inhibition is inactive: -6%.
In the case of `COc1ccc2nc(NP(=O)(c3ccccc3)c3ccccc3)sc2c1`, the inhibition is inactive: -4%.
As for `CCC(C)N(CC(C)C)C(=S)SC(NC(C)=O)C(Cl)(Cl)Cl` (stereo unspecified), the inhibition was inactive: 3%.
With `COP1(=S)c2c(C)nn(CCC#N)c2N=C(c2ccc(F)cc2)N1C` (stereo unspecified), the inhibition was inactive: -10%.
As for `O=C(COc1ccccc1)OC1CN2CCC1CC2` (stereo unspecified), the inhibition was inactive: -4%.
Regarding `O=P(Nc1ccccn1)(c1cccc2ccccc12)c1cccc2ccccc12`, the inhibition was inactive: -7%.
As for `Cc1cc(SC(NC=O)C(Cl)(Cl)Cl)ncn1` (stereo unspecified), the inhibition was inactive: 0%.
As for `Cc1cc(SC(NC(=O)c2ccccc2)C(Cl)(Cl)Cl)nc(C(C)C)n1` (stereo unspecified), the inhibition is inactive: 19%.
